In ChEMBL document CHEMBL2021815, “Metabolism of 4-Aminopiperidine Drugs by Cytochrome P450s: Molecular and Quantum Mechanical Insights into Drug Design” (ACS Med Chem Lett, 2011) one finds t1/2 and CLH data, which are given here for one compound.

Sequences of proteins named here, by UniProt entry; tags and fusion partners are left off. Residues count along the entry.
UniProt P20813, whole entry: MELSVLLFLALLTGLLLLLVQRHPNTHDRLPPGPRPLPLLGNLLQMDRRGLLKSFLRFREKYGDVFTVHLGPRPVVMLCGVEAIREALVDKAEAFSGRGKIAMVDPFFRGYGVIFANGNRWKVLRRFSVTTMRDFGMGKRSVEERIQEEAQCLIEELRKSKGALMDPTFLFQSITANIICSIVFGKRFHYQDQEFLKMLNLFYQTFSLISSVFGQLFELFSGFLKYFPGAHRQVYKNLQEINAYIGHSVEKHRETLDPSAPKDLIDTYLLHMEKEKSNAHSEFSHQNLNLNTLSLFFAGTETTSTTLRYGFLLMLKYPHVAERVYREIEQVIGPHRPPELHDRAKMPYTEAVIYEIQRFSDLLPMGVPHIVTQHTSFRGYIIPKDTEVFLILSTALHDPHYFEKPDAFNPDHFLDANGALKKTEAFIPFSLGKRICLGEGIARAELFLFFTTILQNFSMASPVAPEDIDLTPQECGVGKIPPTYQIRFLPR
UniProt P10632, whole entry: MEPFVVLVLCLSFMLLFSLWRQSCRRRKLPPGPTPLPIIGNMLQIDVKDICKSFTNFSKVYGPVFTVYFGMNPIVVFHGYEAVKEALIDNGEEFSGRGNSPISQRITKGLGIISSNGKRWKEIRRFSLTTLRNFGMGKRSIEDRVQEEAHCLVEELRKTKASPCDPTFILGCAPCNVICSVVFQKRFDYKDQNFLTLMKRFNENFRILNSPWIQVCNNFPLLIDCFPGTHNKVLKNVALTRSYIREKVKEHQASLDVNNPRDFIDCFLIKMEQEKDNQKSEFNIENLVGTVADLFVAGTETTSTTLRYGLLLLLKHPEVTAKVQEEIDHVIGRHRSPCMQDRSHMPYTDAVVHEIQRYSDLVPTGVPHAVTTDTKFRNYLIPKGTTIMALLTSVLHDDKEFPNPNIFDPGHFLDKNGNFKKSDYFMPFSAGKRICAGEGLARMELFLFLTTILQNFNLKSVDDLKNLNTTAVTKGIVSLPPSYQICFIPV
UniProt P11712, whole entry: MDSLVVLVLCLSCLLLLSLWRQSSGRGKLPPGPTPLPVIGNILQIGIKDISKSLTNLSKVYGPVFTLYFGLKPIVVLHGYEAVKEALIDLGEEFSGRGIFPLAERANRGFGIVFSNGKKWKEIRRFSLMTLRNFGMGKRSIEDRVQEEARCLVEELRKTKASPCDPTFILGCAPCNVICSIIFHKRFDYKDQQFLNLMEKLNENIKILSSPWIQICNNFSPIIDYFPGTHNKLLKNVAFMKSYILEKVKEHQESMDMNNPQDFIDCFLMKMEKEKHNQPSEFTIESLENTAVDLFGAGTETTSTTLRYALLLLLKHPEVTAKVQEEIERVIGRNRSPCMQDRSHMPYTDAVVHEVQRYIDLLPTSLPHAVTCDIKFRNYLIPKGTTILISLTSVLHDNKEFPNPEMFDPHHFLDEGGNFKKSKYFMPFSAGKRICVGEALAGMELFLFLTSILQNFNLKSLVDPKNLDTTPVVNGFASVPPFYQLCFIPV
UniProt P05177, 2-516 limits assumed: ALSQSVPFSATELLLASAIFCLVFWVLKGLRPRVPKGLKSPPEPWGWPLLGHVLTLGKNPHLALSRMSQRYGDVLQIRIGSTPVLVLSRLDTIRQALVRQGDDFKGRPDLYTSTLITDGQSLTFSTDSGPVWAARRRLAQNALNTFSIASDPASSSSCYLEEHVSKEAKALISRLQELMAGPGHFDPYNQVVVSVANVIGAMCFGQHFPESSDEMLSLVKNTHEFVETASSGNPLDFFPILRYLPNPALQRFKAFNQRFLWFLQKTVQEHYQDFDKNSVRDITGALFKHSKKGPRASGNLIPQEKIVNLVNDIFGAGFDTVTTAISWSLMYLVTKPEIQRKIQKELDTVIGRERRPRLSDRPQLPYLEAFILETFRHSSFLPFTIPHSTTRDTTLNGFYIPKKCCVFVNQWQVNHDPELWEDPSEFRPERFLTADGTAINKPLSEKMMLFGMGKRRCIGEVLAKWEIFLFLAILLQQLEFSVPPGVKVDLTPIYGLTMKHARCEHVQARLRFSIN

Assay type in all cases: ADME, Microsome
In one series the target is Cytochrome P450 2B6 (Homo sapiens, UniProt P20813). Description: Half life in human liver microsomes assessed as CYP2B6-mediated parent compound depletion at 1 uM. For orientation: Liver microsomes are a subcellular fraction often used to study metabolism.
In another series the target is Cytochrome P450 2C8 (Homo sapiens, UniProt P10632). In words: Half life in human liver microsomes assessed as CYP2C8-mediated parent compound depletion at 1 uM.
The target in another series is Cytochrome P450 2C9 (Homo sapiens, UniProt P11712). Description: Half life in human liver microsomes assessed as CYP2C9-mediated parent compound depletion at 1 uM.
The next series deals with Liver microsomes. In words: Clearance in human liver microsomes at 1 uM.
The next series concerns the target Cytochrome P450 1A2 (Homo sapiens, UniProt P05177). In words: Half life in human liver microsomes assessed as CYP1A2-mediated parent compound depletion at 1 uM.

Some compounds may have been tested in ways that are not shown here. A value given as a limit tells only on which side of the number the result lay.

Regarding `CC(C)N1CCC(N(C(=O)Cc2ccccc2)c2ccc(Cl)cc2)CC1`, the t1/2 at Cytochrome P450 2B6, on Cytochrome P450 2C8, on Cytochrome P450 2C9 and at Cytochrome P450 1A2 was > 1 h in each case. Besides, in the series on Liver microsomes, the CLH turned out to be 159 µL/min/mg.
